Laboratory results: patent US20260216170A1, “TETRAHYDROISOQUINOLINE HETEROBIFUNCTIONAL BCL-XL DEGRADERS” (Treeline Biosciences, Inc., priority 2023, published 2026)

Chains of the proteins cited; added tags and fusions are not shown.
UniProt Q07817, whole entry: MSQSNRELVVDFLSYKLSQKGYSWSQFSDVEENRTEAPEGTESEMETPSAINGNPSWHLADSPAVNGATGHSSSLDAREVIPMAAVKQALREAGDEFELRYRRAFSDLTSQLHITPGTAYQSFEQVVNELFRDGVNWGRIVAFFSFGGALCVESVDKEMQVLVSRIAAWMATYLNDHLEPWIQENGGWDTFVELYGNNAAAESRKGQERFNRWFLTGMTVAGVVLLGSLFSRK

Target: Human BCL-XL protein (N-terminal HiBiT tagged BCL-XL expressed in HT1080 cells) (Homo sapiens, UniProt Q07817)
Test: HiBiT Based Degradation Assay
Details: 24 hours incubation
Text: HiBiT Based Degradation Assay
Human BCL-XL protein coding open reading frame fused with N-terminal HiBiT coding sequence (N-HiBiT-BCL-XL) was synthesized from Integrated DNA Technologies (IDT). Next, N-HiBiT-BCL-XL sequence was cloned into pLV-UBC-PGK-Puro, a lentivirus plasmid purchased from Vectorbuilder, to generate pLV-UBC-N-HiBiT-BCL-XL-PGK-puro. Lentiviral particles were generated from Lenti-X™ 293T cells (Clontech) by co-transfection of pLV-UBC-N-HiBiT-BCL-XL-PGK-puro plasmids and lentiviral packaging plasmid mix (Cellecta). HT-1080 [HT1080](ATCC CCL-121™) cells were infected with the lentivirus, and HT1080 cells stably integrated with the lentiviral vector were established by incubation with 1 μg/mL puromycin (Thermofisher). HT1080 cells expressing N-terminal HiBiT tagged BCL-XL were dispensed into 384-well plates pre-spotted with compounds at varying concentrations. Three thousand cells were seeded into each well in 40 μL of RPMI 1640 media. After 24 hours of incubation at 37° C. with 5% CO2, 30 μL of the NANO-GLO® HiBiT Lytic Detection System working solution (Promega) was added to each well and incubated at room temperature for 30 min. After incubation, luminescence was read on a PHERAstar FSX Plate Reader (BMG). BCL-XL degradation at each indicated concentration was normalized with DMSO control. The BCL-XL degradation curves were plotted using a four-parameter logistic model. […]

Cc1c(OCCC[C@H]2CCN(CC(=O)Nc3ccc4c(C5CCC(=O)NC5=O)nn(C)c4c3)[C@@H](C)C2)cccc1-c1ccc(N2CCc3ccnc(C(=O)Nc4nc5ccccc5s4)c3C2)nc1C(=O)O (some centres unmarked) was tested, and the “Ymin (24 h)” value (bottom of BCL-XL degradation curve (remaining HiBiT-BCL-XL signal vs DMSO control), HT1080 cells) was “B (30% ≤ Ymin < 50%)” and the EC50 (read-out: EC50 (24 h), BCL-XL degradation, HT1080 cells expressing N-HiBiT-BCL-XL, normalized with DMSO control, geometric mean for multiple data points) was 0.01 to 0.1 µM.
